Experimental data reported in ChEMBL document CHEMBL1127240, “Structure-activity relationships of taxol: synthesis and biological evaluation of C2 taxol analogs” (Bioorg Med Chem Lett, 1994).

Amino acid sequences for entries named in this document (tags omitted).
UniProt P02550, whole entry, looked up: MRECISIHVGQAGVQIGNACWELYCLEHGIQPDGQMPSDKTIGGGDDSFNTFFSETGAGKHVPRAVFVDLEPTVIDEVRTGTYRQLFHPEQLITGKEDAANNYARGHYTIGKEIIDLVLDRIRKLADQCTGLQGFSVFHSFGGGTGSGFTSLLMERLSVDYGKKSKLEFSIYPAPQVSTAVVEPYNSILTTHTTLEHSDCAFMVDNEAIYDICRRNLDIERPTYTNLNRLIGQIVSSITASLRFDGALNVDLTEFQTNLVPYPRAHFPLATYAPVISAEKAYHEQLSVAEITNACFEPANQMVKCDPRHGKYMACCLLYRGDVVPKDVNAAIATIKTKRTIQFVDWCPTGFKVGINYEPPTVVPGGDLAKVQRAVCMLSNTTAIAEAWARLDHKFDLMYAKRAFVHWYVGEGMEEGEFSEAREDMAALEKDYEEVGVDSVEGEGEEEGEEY

Molecular target: Tubulin alpha chain (Sus scrofa) (UniProt P02550)
Experiment: Compound was tested for effective concentration for tubulin polymerization expressed as ratio of compound relative to taxol (EC0.01 at 5 uM)
Assay type: functional

`CC(=O)O[C@H]1C(=O)[C@@]2(C)[C@H]([C@H](OC(=O)c3ccccc3)[C@]3(O)C[C@H](OC(=O)[C@H](O)[C@@H](NC(=O)c4ccccc4)c4ccccc4)C(C)=C1C3(C)C)[C@]1(OC(C)=O)CO[C@@H]1C[C@@H]2O` [PACLITAXEL] showed a Ratio of 1.
